The values that follow come from patent publication US8283358B2, “N-sulfonamido polycyclic pyrazolyl compounds” (Elan Pharmaceuticals, Inc., priority 2008, dated 2012).

One may read the IC50 as the concentration that inhibits the measured activity by half.

Structures are written as SMILES.

The assay deals with gamma-secretase (partially purified extract of IMR-32 cell membranes; substrate MBP-C125 Swe fusion protein, cleavage at the Aβ40 site) (Homo sapiens, UniProt P49768). As to the kind of experiment: Gamma-secretase APP enzyme assay (Example A). The format is biochemical. The note with it: read-out: γAPP IC50; class symbols; assay described in Example A.

Regarding `O=S(=O)(c1ccc(C(F)(F)F)cc1)N1C2c3ccccc3C1C(F)c1[nH]ncc12` (single isomer, unassigned), the IC50 is less than 100 nM. The figure for `O=S(=O)(c1ccc(C(F)(F)F)nc1)N1C2Cc3cccc(Br)c3C1c1cn[nH]c1C2` (single isomer, unassigned) is less than 100 nM.
